From paper PMC4728187, “A fluorescent approach for identifying P2X1 ligands” (Neuropharmacology, 2015)

Target: T1, P2X1 receptors (Homo sapiens, UniProt P51575)
T1 sequence (P51575 1-399): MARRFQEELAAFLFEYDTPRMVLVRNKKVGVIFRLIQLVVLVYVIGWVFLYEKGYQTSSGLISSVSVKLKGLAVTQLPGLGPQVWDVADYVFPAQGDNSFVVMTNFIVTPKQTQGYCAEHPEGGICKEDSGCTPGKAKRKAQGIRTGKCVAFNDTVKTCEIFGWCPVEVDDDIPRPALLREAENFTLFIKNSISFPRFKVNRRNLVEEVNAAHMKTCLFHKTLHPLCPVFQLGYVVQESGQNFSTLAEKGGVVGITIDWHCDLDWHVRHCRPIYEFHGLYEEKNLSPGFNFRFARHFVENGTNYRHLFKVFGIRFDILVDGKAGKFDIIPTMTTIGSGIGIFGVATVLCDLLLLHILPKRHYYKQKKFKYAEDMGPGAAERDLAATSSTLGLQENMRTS
Assay: Confocal microscopy kinetic analysis of Alexa-647-ATP binding at the cell surface
Design: expressed in transfected cells
Conditions: calculated from kinetic values, Eq. (3); read-out: Kd (Kb) from koff/kon
Protocol: Kinetic parameters were determined according to the following model of a simple bimolecular binding scheme:(2) L+R⇌koffkonLR where L is the free ligand concentration, R is receptor concentration, LR is the ligand–receptor complex and kon and koff are the microscopic association and dissociation rate constants. In a simple scheme such as this, the equilibrium dissociation constant (Kd) is equal to the ratio of dissociation to association rate constants, such that:(3) Kb=k−1/k+1
According to a one site binding model of the type shown, the observed rates of association and dissociation can be used to estimate k+1 and k−1:(4) 1/τoff=k−1 and(5) 1/τon=k+1[L]+k−1 where τon refers to the rate at which fluorescence increases, τoff refers to the rate that fluorescence decreases and [L] is concentration of the ligand used.
Association was determined by measuring the increase in fluorescence seen at the cell surface following the application of different concentrations of Alexa-647-ATP. Dissociation was measured by 3 rapid washes with PBS on Alexa-647-ATP equilibrated cells. Intracellular and background fluorescence was also routinely monitored as a control.

Substance: Alexa-647-ATP
- Kd: 119 nM
